Measured values reported in PubChem BioAssay AID568 (Sanford-Burnham Center for Chemical Genomics, 2006).
Only a part is listed here, and it is no random draw. Measured potencies and affinities stand elsewhere. The source made the active and inactive calls. How the calls were made is not given here.

Chains of the proteins cited; added tags and fusions are not shown.
UniProt P11142, whole entry, looked up: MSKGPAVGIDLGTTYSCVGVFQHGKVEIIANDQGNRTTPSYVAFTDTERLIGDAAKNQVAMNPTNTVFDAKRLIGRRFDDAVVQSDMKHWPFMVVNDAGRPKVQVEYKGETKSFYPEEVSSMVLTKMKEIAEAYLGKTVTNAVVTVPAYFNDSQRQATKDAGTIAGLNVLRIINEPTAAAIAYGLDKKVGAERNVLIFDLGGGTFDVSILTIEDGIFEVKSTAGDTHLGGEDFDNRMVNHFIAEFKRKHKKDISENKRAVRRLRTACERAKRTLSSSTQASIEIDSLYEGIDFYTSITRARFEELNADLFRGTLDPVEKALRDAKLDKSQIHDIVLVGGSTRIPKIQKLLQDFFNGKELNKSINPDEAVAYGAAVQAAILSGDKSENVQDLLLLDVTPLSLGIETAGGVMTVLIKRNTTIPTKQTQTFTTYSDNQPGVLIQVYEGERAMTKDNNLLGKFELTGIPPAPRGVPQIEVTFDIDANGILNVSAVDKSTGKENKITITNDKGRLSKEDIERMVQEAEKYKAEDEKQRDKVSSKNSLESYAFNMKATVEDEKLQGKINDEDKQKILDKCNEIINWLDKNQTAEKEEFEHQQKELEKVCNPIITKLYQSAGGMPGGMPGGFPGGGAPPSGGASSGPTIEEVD

target: Heat shock cognate 71 kDa protein (Homo sapiens) (UniProt P11142); assay: Hsc70 inhibitors, probe displacement, primary screen, biochemical, fluorescence polarization (AID 568); settings: mP, at 20 µM, active compounds read high

SMILES | displacement
CCc1nc2c(n1)c1c(non1O)c1c2no[n+]1[O-] | inactive: -5%
O=[N+]([O-])c1cccc2n[nH]nc12 | inactive: -0.3%
CC1CCN(C(=O)Oc2c(Cl)cc(Cl)c3cccnc23)CC1 | inactive: -0.1%
Cc1c2non([O-])c-2c(C)[n+](=O)[n+]1[O-] | inactive: 2%
Oc1ccccc1CNc1ccccn1 | inactive: 1.9%
CCOP(=O)(Nc1ccccc1)OCC | inactive: 2.7%
COC(=O)c1cc2c(s1)N=C(c1ccccc1)N(C)P2(=O)N1CCOCC1 (configuration not stated) | inactive: 2.4%
O=P1(Nc2nc3ccc(Cl)cc3s2)COc2ccccc2O1 (configuration not stated) | inactive: -4.8%
O=P(Nc1nccs1)(c1ccccc1)c1ccccc1 | inactive: 6.9%
c1nnnn1CCn1cnnn1 | inactive: -5.2%
O=C(OC1CN2CCC1CC2)c1cccc(Cl)c1 (configuration not stated) | inactive: 3.9%
Cc1nn(-c2ccccc2)c2c1P(=O)(N1CCOCC1)N(C)C(c1ccccc1)=N2 (configuration not stated) | inactive: 0.7%
O=P1(Nc2ncccn2)COc2ccccc2OC1 | inactive: 2.4%
O=P1(Nc2ccc(Br)cn2)COc2ccccc2OC1 | inactive: -0.7%
Cc1ccc(OCC(=O)OC2CN3CCC2CC3)cc1 (configuration not stated) | inactive: 0.9%
O=P1(Nc2ccccn2)COc2ccccc2OC1 | inactive: 1.2%
Clc1n[nH]nc1-c1nn[nH][15n]1 | inactive: 6.6%
CC1(CBr)Cn2c(nc3ccccc3c2=O)S1 (configuration not stated) | inactive: -0.3%
Cc1cccc(OCC(=O)OC2CN3CCC2CC3)c1 (configuration not stated) | inactive: -2%
O=P(Nc1nccs1)(c1ccccc1)c1nc2ccccc2s1 (configuration not stated) | inactive: -1.1%
CCOP1(=S)c2c(C)nn(CCC#N)c2N=C(c2ccccc2F)N1C (configuration not stated) | inactive: 0.7%
CCOP1(=S)c2c(C)nn(CCC#N)c2N=C(c2ccc(F)cc2)N1C (configuration not stated) | inactive: -0.3%
ClCCSc1nnc(-c2cccnc2)o1 | inactive: -1.1%
O=C(OC1CN2CCC1CC2)C12CC3CC(CC(C3)C1)C2 (configuration not stated) | inactive: -5.3%
COP1(=S)c2c(C)nn(CCC#N)c2N=C(c2ccc(F)cc2)N1C (configuration not stated) | inactive: 3.7%
O=C(COc1ccccc1)OC1CN2CCC1CC2 (configuration not stated) | inactive: 2.6%
CCC(C)N(CC(C)C)C(=S)SC(NC(C)=O)C(Cl)(Cl)Cl (configuration not stated) | inactive: -1.8%
